Measurements from US11708423B2, “Chimeric engulfment receptor molecules and methods of use” (CERO THERAPEUTICS, INC., priority 2017, dated 2023).

How the values were obtained:
[1] = system: A549 lung adenocarcinoma cells with ELM4-ALK fusion translocation; test: Tim4-IgG1 Fc staining for phosphatidylserine exposure after ALK inhibitor treatment; assay type: cell-based; details: 12 hours, increasing concentrations up to 5000 nM
[2] = system: HCC159 lung adenocarcinoma cells; test: Tim4-IgG1 Fc staining for phosphatidylserine exposure after EGFR inhibitor treatment; assay type: cell-based; details: 12 hours, increasing concentrations 50 nM and higher
From the text: HCC159 lung adenocarcinoma cells harbor an EGFR mutation and are sensitive to EGFR inhibition.

| SMILES | surface staining with Tim4-IgG1 Fc fusion protein (phosphatidylserine exposure) [1] | surface staining with Tim4-IgG1 Fc fusion protein (phosphatidylserine exposure) [2] |
| --- | --- | --- |
| CCc1cc2c(cc1N1CCC(N3CCOCC3)CC1)C(C)(C)c1[nH]c3cc(C#N)ccc3c1C2=O [Alectinib] | enhance surface staining with Tim4-IgG1 Fc fusion protein |  |
| C[C@@H](Oc1cc(-c2cnn(C3CCNCC3)c2)cnc1N)c1c(Cl)ccc(F)c1Cl [Crizotinib] | enhance surface staining with Tim4-IgG1 Fc fusion protein |  |
| COc1cc2ncnc(Nc3ccc(F)c(Cl)c3)c2cc1OCCCN1CCOCC1 [Gefitinib] |  | enhanced surface staining with Tim4-IgG1 Fc fusion protein |
